These are literature values, as cited in patent US20250325518A1, “USE OF A COMBINATION OF SACUBITRIL AND VALSARTAN” (Novartis AG, priority 2016, published 2025).

This series concerns adult patients with HF with reduced ejection fraction (HFrEF).

“trisodium [3-((1S,3R)-1-biphenyl-4-ylmethyl-3-ethoxycarbonyl-1-butylcarbamoyl)propionate-(S)-3′-methyl-2′-(pentanoyl{2″-(tetrazol-5-ylate)biphenyl-4′-ylmethyl}amino)butyrate] hemipentahydrate [LCZ696]”: the safety and tolerability result is “generally safe and well tolerated”.
